# Measured values published in article PMC6099588.
# What was measured:
# MLV particles = assay: Western blot of MLV capsid in concentrated HCVpp; settings: Western blot with anti-capsid MLV antibody, versus HCVpp produced without inhibitors
# HCV E2 glycoprotein = assay: Western blot of E2 glycoprotein incorporated into concentrated HCVpp; settings: Western blot of 100× concentrated HCVpp
SMILES,amount of MLV particles (MLV particles),amount of E2 glycoprotein incorporated into HCVpp (HCV E2 glycoprotein)
CC(=O)O[C@H]1[C@H](C)O[C@H](OC[C@H]2O[C@@H](n3ccc(=O)n(C(=O)c4ccccc4)c3=O)[C@@H]3OC(C)(C)O[C@@H]32)C[C@@H]1O[Si](C)(C)C(C)(C)C [Compound 2],no changes in the amount of MLV particles,–
CC1(C)O[C@@H]2[C@H](O1)[C@@H](CO[C@@H]1C[C@@H](OCc3ccccc3)[C@H](OCc3ccccc3)[C@@H](COCc3ccccc3)O1)O[C@H]2n1ccc(=O)n(C(=O)c2ccccc2)c1=O [Compound 4],no changes in the amount of MLV particles,no reduction in the amount of the protein
"CC(=O)N[C@H]1[C@@H](O[C@@H]2O[C@H](C[C@@H](O)[C@H]3O[C@@H](n4ccc(=O)[nH]c4=O)[C@H](O)[C@@H]3O)[C@H](O)[C@H](O)[C@H]2NC(=O)/C=C/CCCCCCCCCC(C)C)O[C@H](CO)[C@@H](O)[C@@H]1O [Tunicamycin, reference compound]",no changes in the amount of MLV particles,–
